Consider one molecule from ChEMBL document CHEMBL1129852, “Peptidyl -keto thiazole as potent thrombin inhibitors” (Bioorg Med Chem Lett, 1997).

The experiment has as its target Prothrombin (Homo sapiens, UniProt P00734). The experiment in a line: Inhibition of thrombin.

Usually IC50 stands for the point on the concentration scale where inhibition reaches its midpoint. Read a high IC50 as weaker potency. Turning to `CC1CNc2c(cccc2S(=O)(=O)N[C@@H](CCCNC(=N)N)C(=O)N2CCC(C)C[C@@H]2C(=O)O)C1` (single isomer, unassigned) [ARGATROBAN], inhibition was half-maximal at 600 nM (IC50).
